Data published in ChEMBL document CHEMBL3124778, “Structure-based design of new dihydrofolate reductase antibacterial agents: 7-(benzimidazol-1-yl)-2,4-diaminoquinazolines” (J Med Chem, 2014).

Assay: Selectivity ratio of Ki for human DHFR to Ki for Staphylococcus aureus DHFR

Structure (SMILES)	Ratio Ki
COc1cc2nc(-c3ccco3)n(-c3cc4nc(N)nc(N)c4cc3Cl)c2cc1OC	25000
Cc1cc2nc(-c3cccn3C)n(-c3ccc4c(N)nc(N)nc4c3)c2cc1C	> 1250
Cc1cc2nc(N3CCOCC3)n(-c3ccc4c(N)nc(N)nc4c3)c2cc1C	1800
Cc1cc2ncn(-c3ccc4c(N)nc(N)nc4c3)c2cc1C	950
COc1ccc(-c2nc3cc(C)c(C)cc3n2-c2ccc3c(N)nc(N)nc3c2)cc1	6800
Cc1cc2nc(-c3ccco3)n(-c3ccc4c(N)nc(N)nc4c3)c2cc1C	135000
Cc1cc2nc(-c3ccncc3)n(-c3ccc4c(N)nc(N)nc4c3)c2cc1C	17000
Cc1cc2nc(-c3cncn3C)n(-c3ccc4c(N)nc(N)nc4c3)c2cc1C	2600
Cc1cc2nc(-c3nccs3)n(-c3ccc4c(N)nc(N)nc4c3)c2cc1C	46500
COc1cc2nc(-c3cccs3)n(-c3cc4nc(N)nc(N)c4cc3Cl)c2cc1OC	> 20000
Cc1cc2nc(C3CC3)n(-c3ccc4c(N)nc(N)nc4c3)c2cc1C	8300
Cc1cc2nc(-c3cccs3)n(-c3cc4nc(N)nc(N)c4cc3Cl)c2cc1C	> 100000
Cc1cc2nc(-c3ccsc3)n(-c3ccc4c(N)nc(N)nc4c3)c2cc1C	55000
Cc1cc2nc(C3CCCO3)n(-c3ccc4c(N)nc(N)nc4c3)c2cc1C (stereo unspecified)	3700
Cc1cc2nc(-c3cccs3)n(-c3ccc4c(N)nc(N)nc4c3)c2cc1C	205000
Cc1cc2nc(C3CCOC3)n(-c3ccc4c(N)nc(N)nc4c3)c2cc1C (stereo unspecified)	> 1000
